Earlier results, collected in patent US4743619A, “Method of treating hepatitis” (American Home Products Corporation, priority 1986, dated 1988).

Tested on: polymerase activity of the viron or Dane particle
Settings: nine patients, chronic hepatitis B, cited from earlier work

For “rINF-A: leukocyte A Interfereon (rINF-A or HuIFN-2), produced by recombinant DNA methods”, the “permanence of the change in polymerase activity” value is given as “not permanent in any of the patients” and the “polymerase activity of the viron or Dane particle under treatment” value (most courses of treatment) is given as “associated with a reduction in polymerase activity of the viron or Dane particle”.
